The entries are a selection whose mix differs from that of the whole data set. Some salts or complexes appear as unconnected parts, following the source record. Active and inactive are the calls of the source. No stated cut-off is given here; in the data, active means activity change below about -30%; inactive means the rest.
Tested on: cytosolic chaperonin (CCT/TRiC complex)
Test: High-Throughput Screening for Modulators of Cytosolic Chaperonin Activity
Conditions: purified chaperonin ATPase assay, HTRF ADP detection, 30 min; hits give low values
From the text: The eukaryotic chaperonin named TRiC (for TCP-1 ring complex), also called CCT (for chaperonin containing TCP1), is an essential and conserved chaperone required for the folding and activation of 10-15% of the proteins encoded by the human genome. […] Despite its central role in cellular folding, little is known about TRiC mechanism and mode of substrate binding. Currently, no specific TRiC inhibitors are available. Given the early promise of other chaperone-directed inhibitors as cancer therapeutics (e.g. HSP90 inhibitors), inhibitors of TRiC activity may also selectively target transformed cells and have potential use as therapeutics for cancer.
To this end, a miniaturized assay was developed to screen against the Molecular Libraries Small Molecule Repository (MLSMR).
NIH Chemical Genomics Center [NCGC]
NIH Molecular Libraries Probe Centers Network [MLPCN]
Assay Submitter (PI): Judith Frydman, Stanford University
1.5 uL/well TRiC enzyme suspended in buffer (30 mM TRIS pH7.4, 100 mM KCl, 5 mM MgCl2, 1 mM DTT) was added with BioRAPTR FRD dispenser at 40 nM or 20 nM (based on the enzymatic activity of used batches) final concentration to a white solid bottom medium binding 1536-well plate (Greiner Bio-One, Monroe, NC), and quickly spanned down. 23 nl/well of compound solutions in DMSO were added with a pintool transfer (Kalypsis, San Diego, CA) at a single 76 uM final concentration. Next, 1.5 µl/well ATP was dispensed with BioraptR at 10 uM final concentration after which the plates were incubated at 37 deg C for 30 min. HTRF(R) Transcreener(R) ADP (Cisbio US, Bedford, MA) detection reagents were prepared accordingly to the protocol and dispensed into the plate (1.5 uL/well each), incubated for 30 min at ambient temperature. Then, the plates were read using Envision reader with excitation at 330nm and emission at 615nm (Eu(3)-Cryptate donor signal) and 665nm (d2 acceptor signal). The ratio of […] was calculated for each well.
On the % scale 0 is the no-effect control and ±100 the full control effect.

| Structure (SMILES) | activity change |
| --- | --- |
| O=C(NCC1(N2CCCCC2)CCCCC1)c1cccc([N+](=O)[O-])c1 | inactive: -1.62% |
| CSc1ccc(C(=O)NCC2(N3CCOCC3)CCCCC2)cc1 | inactive: -4.05% |
| O=c1[nH]c2ccccc2n1C1CCN(C(c2ccccc2OC(F)(F)F)c2nnnn2C2CCCC2)CC1 (configuration not stated) | inactive: 1.4% |
| N#CC1(Nc2ccccc2)CCN(CCc2ccccc2)CC1 | inactive: -3.52% |
| CCN1CCC(Nc2ccc(Cl)cc2)CC1 | inactive: 0.0595% |
| O=C(NCC1(N2CCCCC2)CCCCC1)c1ccc(OC(F)F)cc1 | inactive: 1.74% |
| CC(C)(C)n1nnnc1C(c1ccccc1OC(F)(F)F)N1CCC(n2c(=O)[nH]c3ccccc32)CC1 (configuration not stated) | inactive: 0.456% |
| COc1ccc(NC2CCN(C(=O)OC(C)(C)C)CC2)cc1 | inactive: -1.46% |
| CC(C)c1ccc(C(=O)NCC2(N3CCOCC3)CCCCC2)cc1 | inactive: 0.615% |
| CN1CCN(CCOC(=O)C(O)(c2ccccc2)c2ccccc2)CC1 | inactive: 2.18% |
| CCCCn1nnnc1C(c1cccc2ccccc12)N1CCC(n2c(=O)[nH]c3ccccc32)CC1 (configuration not stated) | inactive: -1.84% |
| O=C(NCC1(N2CCOCC2)CCCCC1)c1cc(=O)[nH]c2ccccc12 | inactive: -3.1% |
| COc1cc(C(=O)NCC2(N3CCCCC3)CCCCC2)ccc1OC(F)F | inactive: -1.79% |
| O=C(NCC1(N2CCCCC2)CCCCC1)c1cccc(C(F)(F)F)c1 | inactive: -0.303% |
| O=[N+]([O-])c1cc([N+](=O)[O-])c(NCC2CCS(=O)(=O)C2)c([N+](=O)[O-])c1 (configuration not stated) | inactive: -0.0281% |
| CCCCn1nnnc1C(c1ccnc2ccccc12)N1CCC(n2c(=O)[nH]c3ccccc32)CC1 (configuration not stated) | inactive: -6.62% |
| CCC(c1nnnn1C(C)(C)C)N1CCC(n2c(=O)[nH]c3ccccc32)CC1 (configuration not stated) | inactive: 0.102% |
| O=C(NCC1(N2CCOCC2)CCCCC1)c1cc(F)c(F)cc1Cl | inactive: -3.38% |
| COc1cc(OC)c(C(=O)NCC2(N(C)C)CCCCC2)cc1OC | inactive: 0.48% |
| CN(C)c1cccc(C(=O)NCC2(N3CCCCC3)CCCCC2)c1 | inactive: -4.24% |
| O=[N+]([O-])c1cc([N+](=O)[O-])c(OC2CCCCC2O)c([N+](=O)[O-])c1 (configuration not stated) | inactive: 0.631% |
| COc1ccc(CN(CCCl)CCCl)cc1Cl | inactive: -0.498% |
| CCCCn1nnnc1C(c1ccccc1OC(F)(F)F)N1CCC(n2c(=O)[nH]c3ccccc32)CC1 (configuration not stated) | inactive: 1.03% |

| Structure (SMILES) | activity change |
| --- | --- |
| CC(C)c1ccc(NC2CCN(C(=O)OC(C)(C)C)CC2)cc1 | inactive: 0.25% |
| CCCOc1ccc(C(=O)NCC2(N(C)C)CCCCC2)cc1OC | inactive: 0.311% |
| Cc1ccc(C(=O)NCC2(N(C)C)CCCCC2)o1 | inactive: 1.93% |
| COc1ccc(C(c2nnnn2C2CCCC2)N2CCC(n3c(=O)[nH]c4ccccc43)CC2)cc1 (configuration not stated) | inactive: -0.29% |
| O=[N+]([O-])c1cc([N+](=O)[O-])c(Nc2ccc(Cl)cc2)c([N+](=O)[O-])c1 | inactive: 0.442% |
| CN1CCC(Nc2cccc(F)c2)CC1 | inactive: -0.068% |
| O=C(NCC1(N2CCCCC2)CCCCC1)c1cncc(Br)c1 | inactive: -3.33% |
| COc1ccc2c(c1O)-c1c(O)c(OC)cc3c1[C@H](C2)[N+](C)(C)CC3.O=[N+]([O-])c1cc([N+](=O)[O-])c([O-])c([N+](=O)[O-])c1[O-] | inactive: -3.22% |
| O=C(OC1CN2CCC1CC2)c1ccc([N+](=O)[O-])cc1 (configuration not stated) | inactive: -3.22% |
| Cc1cccc(NC2(C#N)CCN(Cc3ccccc3)CC2)c1 | inactive: -0.131% |
| CSc1ccccc1C(=O)NCC1(N2CCCCC2)CCCCC1 | inactive: -1.23% |
| CCCCn1nnnc1C(CC)N1CCC(n2c(=O)[nH]c3ccccc32)CC1 (configuration not stated) | inactive: -2.51% |
| O=C(NCC1(N2CCCCC2)CCCCC1)c1cccs1 | inactive: 3.68% |
| CCCCn1nnnc1C(c1cccs1)N1CCC(n2c(=O)[nH]c3ccccc32)CC1 (configuration not stated) | inactive: -5.23% |
| O=C(NCC1(N2CCCCC2)CCCCC1)c1ccc(=O)[nH]c1 | inactive: 1.2% |
| COc1ccc(C(=O)NCC2(N3CCCCC3)CCCCC2)c(OC)c1OC | inactive: -1.41% |
| CC(C)(C)OC(=O)N1CCC(N(C(=O)c2ccccc2)c2ccc(F)cc2)CC1 | inactive: 1.61% |
| CCC(c1nnnn1C1CCCC1)N1CCC(n2c(=O)[nH]c3ccccc32)CC1 (configuration not stated) | inactive: 0.104% |
| COc1ccc(C(=O)NCC2(N3CCCCC3)CCCCC2)cc1 | inactive: -3.72% |
| CCCCn1nnnc1C(c1ccc(OC)cc1)N1CCC(n2c(=O)[nH]c3ccccc32)CC1 (configuration not stated) | inactive: -0.784% |
| CCOC(=O)N1CCC(Nc2ccc(OC)cc2)CC1 | inactive: -0.0922% |
| COc1ccc(Cl)cc1C(=O)NCC1(N2CCOCC2)CCCCC1 | inactive: -0.332% |
| O=C1C(O)=C([N+](=O)[O-])C(=O)C(O)=C1[N+](=O)[O-] | inactive: -2.55% |

| Structure (SMILES) | activity change |
| --- | --- |
| O=C(NCC1(N2CCCCC2)CCCCC1)c1ccc(Cl)s1 | inactive: -1.19% |
| N#CC1(Nc2ccccc2)CCN(Cc2ccccc2)CC1 | inactive: -1.4% |
| O=c1[nH]c2ccccc2n1C1CCN(C(c2cc3ccccc3o2)c2nnnn2C2CCCCC2)CC1 (configuration not stated) | inactive: 2.14% |
| O=C(OC1CN2CCC1CC2)C1c2ccccc2Oc2ccccc21 (configuration not stated) | inactive: 1.45% |
| O=C(NCC1(N2CCOCC2)CCCCC1)c1cc2ccccc2o1 | inactive: -0.719% |
| Cc1cc(C)cc(N(C(=O)c2ccccc2)C2CCN(C(=O)OC(C)(C)C)CC2)c1 | inactive: 0.429% |
| O=C(NCC1(N2CCCCC2)CCCCC1)c1ccc(Cl)nc1 | inactive: 0.0389% |
| O=c1[nH]c2ccccc2n1C1CCN(C(c2ccccc2OC(F)(F)F)c2nnnn2C2CCCCC2)CC1 (configuration not stated) | inactive: 1.08% |
| CCOC(=O)N1CCC(Nc2ccc(F)cc2)CC1 | inactive: -0.713% |
| COc1ccc(NC2CCN(CCc3ccccc3)CC2)c(OC)c1 | inactive: -0.858% |
| CCCCOc1ccc(C(=O)NCC2(N3CCOCC3)CCCCC2)cc1 | inactive: 1.79% |
| CCCCn1nnnc1C(c1cc2ccccc2o1)N1CCC(n2c(=O)[nH]c3ccccc32)CC1 (configuration not stated) | inactive: -0.193% |
| O=P1(N(CCCl)CCCl)SCCCS1 | inactive: 3.27% |
| O=C(NCC1(N2CCCCC2)CCCCC1)c1ccc(F)cc1 | inactive: 0.469% |
| CCOc1ccc(C)cc1CN(CCCl)CCCl | inactive: 1.57% |
| O=C1CCN(Cc2ccccc2)CC1 | inactive: -0.754% |
| CC(C)(C)n1nnnc1C(c1ccccc1)N1CCC(n2c(=O)[nH]c3ccccc32)CC1 (configuration not stated) | inactive: -0.0698% |
| O=c1[nH]c2ccccc2n1C1CCN(C(c2cccc3ccccc23)c2nnnn2C2CCCC2)CC1 (configuration not stated) | inactive: 0.8% |
| CCOC(=O)N1CCC(Nc2cccc(C)c2)CC1 | inactive: -0.463% |
| COc1cc(C(=O)NCC2(N(C)C)CCCCC2)ccc1OC(F)F | inactive: -0.204% |
| O=c1[nH]c2ccccc2n1C1CCN(C(c2ccccc2)c2nnnn2C2CCCCC2)CC1 (configuration not stated) | inactive: -0.102% |
| Cc1ccc(NC2(C#N)CCN(Cc3ccccc3)CC2)cc1 | inactive: 1.24% |
| Fc1ccccc1NC1CCN(Cc2ccccc2)CC1 | inactive: 2.11% |

| Structure (SMILES) | activity change |
| --- | --- |
| Cc1ccc(Nc2c([N+](=O)[O-])cc([N+](=O)[O-])cc2[N+](=O)[O-])cc1 | inactive: -0.581% |
| Cc1ccc(C(=O)NCC2(N3CCCCC3)CCCCC2)o1 | inactive: -1.33% |
| COc1cc(OC)cc(C(=O)NCC2(N3CCCCC3)CCCCC2)c1 | inactive: 1.1% |
| O=c1[nH]c2ccccc2n1C1CCN(C(c2ccnc3ccccc23)c2nnnn2C2CCCCC2)CC1 (configuration not stated) | inactive: 0.735% |
| CCC(c1nnnn1C1CCCCC1)N1CCC(n2c(=O)[nH]c3ccccc32)CC1 (configuration not stated) | inactive: 1.73% |
| COc1cccc(C(c2nnnn2C2CCCCC2)N2CCC(n3c(=O)[nH]c4ccccc43)CC2)c1OC (configuration not stated) | inactive: -2.28% |
| CC(=O)N(c1ccccc1)C1CCNCC1 | inactive: -2.03% |
| CN(C)c1ccc(C(=O)NCC2(N3CCCCC3)CCCCC2)cc1 | inactive: -2.27% |
| Cn1c(=O)[nH]cc(N(CCCl)CCCl)c1=O | inactive: 1.72% |
| O=C(NCC1(N2CCCCC2)CCCCC1)c1ccco1 | inactive: -1.31% |
| COc1ccc(C(c2nnnn2C2CCCCC2)N2CCC(n3c(=O)[nH]c4ccccc43)CC2)cc1 (configuration not stated) | inactive: 0.333% |
| CCN1CCC(Nc2cccc(F)c2)CC1 | inactive: 0.918% |
| CC(C)(C)n1nnnc1C(c1ccnc2ccccc12)N1CCC(n2c(=O)[nH]c3ccccc32)CC1 (configuration not stated) | inactive: -0.832% |
| Cc1ccccc1NC1(C#N)CCN(Cc2ccccc2)CC1 | inactive: 0.17% |
| O=c1[nH]c2ccccc2n1C1CCN(C(c2cc3ccccc3o2)c2nnnn2C2CCCC2)CC1 (configuration not stated) | inactive: -0.372% |
| CCCOc1ccc(C(=O)NCC2(N(C)C)CCCCC2)cc1 | inactive: -0.924% |
| NN(c1ccccc1)C1CCN(CCc2ccccc2)CC1 | inactive: 0.298% |
| O=C(O)C1(Nc2ccccc2)CCN(Cc2ccccc2)CC1 | inactive: 0.75% |
| CC(C)(C)OC(=O)N1CCC(Nc2ccccc2)CC1 | inactive: 1.34% |
| CN1CCC(Nc2ccc(F)c(Cl)c2)CC1 | inactive: 1.32% |
| CCOc1ncccc1C(=O)NCC1(N2CCOCC2)CCCCC1 | inactive: -0.578% |
| CN1CCC(Nc2ccc(Cl)cc2)CC1 | inactive: -1.32% |
| CCC(CO)(C(=O)OC1CN2CCC1CC2)c1ccccc1 (configuration not stated) | inactive: -2.22% |
